Values quoted from earlier work as cited in paper PMC9855333, “1-(Arylsulfonyl-isoindol-2-yl)piperazines as 5-HT6R Antagonists: Mechanochemical Synthesis, In Vitro Pharmacological Properties and Glioprotective Activity” (Biomolecules, 2022).

Chains of the proteins cited; added tags and fusions are not shown.
UniProt P50406, whole entry: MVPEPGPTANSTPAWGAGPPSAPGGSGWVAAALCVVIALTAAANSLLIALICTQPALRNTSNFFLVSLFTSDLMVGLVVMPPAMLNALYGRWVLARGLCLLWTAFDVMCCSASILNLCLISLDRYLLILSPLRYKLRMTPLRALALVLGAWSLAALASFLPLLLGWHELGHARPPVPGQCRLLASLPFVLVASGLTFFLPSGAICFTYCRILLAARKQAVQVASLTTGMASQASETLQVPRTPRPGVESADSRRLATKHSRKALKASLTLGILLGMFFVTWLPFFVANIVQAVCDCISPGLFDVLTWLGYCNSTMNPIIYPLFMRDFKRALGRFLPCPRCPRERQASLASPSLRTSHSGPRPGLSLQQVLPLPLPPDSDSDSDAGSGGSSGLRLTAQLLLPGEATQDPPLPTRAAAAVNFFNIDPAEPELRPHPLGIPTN

Biological target: 5-HT6R (Homo sapiens, UniProt P50406)
Design: expressed in transfected cells; host or cells: NG108-15 (mouse neuroblastoma x rat glioma hybrid), transient co-transfection with CAMYEL, Lipofectamine 2000
Conditions: Figure 1; cited from earlier work

O=S(=O)(c1cccc(Cl)c1)n1ccc2c(N[C@H]3CCNC3)nc3ccccc3c21 [CPPQ, (S)-1-[(3-chlorophenyl)sulfonyl]-4-(pyrrolidine-3-yl-amino)-1H-pyrrolo[3,2-c]quinoline]
Functional profile at Gs: Neutral antagonist
